Source: ChEMBL document CHEMBL2021814, “Fragment-based and structure-guided discovery and optimization of Rho kinase inhibitors” (J Med Chem, 2012)

Chains of the proteins cited; added tags and fusions are not shown. Lines headed by an entry give the natural chain unless they say otherwise; changes in a name come on top.
UniProt Q13464: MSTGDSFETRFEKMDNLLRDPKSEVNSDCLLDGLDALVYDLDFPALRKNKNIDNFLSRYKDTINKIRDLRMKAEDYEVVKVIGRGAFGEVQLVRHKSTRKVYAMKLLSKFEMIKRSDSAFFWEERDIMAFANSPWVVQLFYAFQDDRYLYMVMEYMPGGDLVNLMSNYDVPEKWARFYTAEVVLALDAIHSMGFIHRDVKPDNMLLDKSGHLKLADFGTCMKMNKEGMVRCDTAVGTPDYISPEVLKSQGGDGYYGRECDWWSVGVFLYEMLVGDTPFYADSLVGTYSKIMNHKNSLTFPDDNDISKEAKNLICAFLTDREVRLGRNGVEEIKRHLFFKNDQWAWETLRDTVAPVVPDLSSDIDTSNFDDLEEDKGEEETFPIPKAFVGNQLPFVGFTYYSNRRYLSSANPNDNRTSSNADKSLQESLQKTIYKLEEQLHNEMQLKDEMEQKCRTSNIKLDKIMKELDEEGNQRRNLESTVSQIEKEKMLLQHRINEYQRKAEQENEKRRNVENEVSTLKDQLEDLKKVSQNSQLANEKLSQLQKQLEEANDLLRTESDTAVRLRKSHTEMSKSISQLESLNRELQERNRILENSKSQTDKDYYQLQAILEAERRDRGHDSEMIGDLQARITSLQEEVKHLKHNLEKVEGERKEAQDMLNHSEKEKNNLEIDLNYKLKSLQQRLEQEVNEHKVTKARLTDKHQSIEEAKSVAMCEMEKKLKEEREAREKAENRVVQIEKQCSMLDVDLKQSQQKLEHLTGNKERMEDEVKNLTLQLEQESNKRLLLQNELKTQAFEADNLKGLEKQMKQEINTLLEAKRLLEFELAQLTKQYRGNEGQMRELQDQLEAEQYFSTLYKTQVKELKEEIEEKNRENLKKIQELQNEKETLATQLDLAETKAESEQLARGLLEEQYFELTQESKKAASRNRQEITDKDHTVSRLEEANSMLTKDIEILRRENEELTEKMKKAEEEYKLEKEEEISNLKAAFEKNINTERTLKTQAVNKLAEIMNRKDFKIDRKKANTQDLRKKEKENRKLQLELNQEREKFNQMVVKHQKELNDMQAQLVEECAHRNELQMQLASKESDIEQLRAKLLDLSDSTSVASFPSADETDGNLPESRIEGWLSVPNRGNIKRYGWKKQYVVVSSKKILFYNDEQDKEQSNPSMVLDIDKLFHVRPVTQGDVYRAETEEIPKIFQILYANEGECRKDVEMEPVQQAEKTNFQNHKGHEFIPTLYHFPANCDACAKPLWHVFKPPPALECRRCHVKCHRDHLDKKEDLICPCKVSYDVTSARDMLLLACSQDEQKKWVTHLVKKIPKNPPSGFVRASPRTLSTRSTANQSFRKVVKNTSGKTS
UniProt O75116: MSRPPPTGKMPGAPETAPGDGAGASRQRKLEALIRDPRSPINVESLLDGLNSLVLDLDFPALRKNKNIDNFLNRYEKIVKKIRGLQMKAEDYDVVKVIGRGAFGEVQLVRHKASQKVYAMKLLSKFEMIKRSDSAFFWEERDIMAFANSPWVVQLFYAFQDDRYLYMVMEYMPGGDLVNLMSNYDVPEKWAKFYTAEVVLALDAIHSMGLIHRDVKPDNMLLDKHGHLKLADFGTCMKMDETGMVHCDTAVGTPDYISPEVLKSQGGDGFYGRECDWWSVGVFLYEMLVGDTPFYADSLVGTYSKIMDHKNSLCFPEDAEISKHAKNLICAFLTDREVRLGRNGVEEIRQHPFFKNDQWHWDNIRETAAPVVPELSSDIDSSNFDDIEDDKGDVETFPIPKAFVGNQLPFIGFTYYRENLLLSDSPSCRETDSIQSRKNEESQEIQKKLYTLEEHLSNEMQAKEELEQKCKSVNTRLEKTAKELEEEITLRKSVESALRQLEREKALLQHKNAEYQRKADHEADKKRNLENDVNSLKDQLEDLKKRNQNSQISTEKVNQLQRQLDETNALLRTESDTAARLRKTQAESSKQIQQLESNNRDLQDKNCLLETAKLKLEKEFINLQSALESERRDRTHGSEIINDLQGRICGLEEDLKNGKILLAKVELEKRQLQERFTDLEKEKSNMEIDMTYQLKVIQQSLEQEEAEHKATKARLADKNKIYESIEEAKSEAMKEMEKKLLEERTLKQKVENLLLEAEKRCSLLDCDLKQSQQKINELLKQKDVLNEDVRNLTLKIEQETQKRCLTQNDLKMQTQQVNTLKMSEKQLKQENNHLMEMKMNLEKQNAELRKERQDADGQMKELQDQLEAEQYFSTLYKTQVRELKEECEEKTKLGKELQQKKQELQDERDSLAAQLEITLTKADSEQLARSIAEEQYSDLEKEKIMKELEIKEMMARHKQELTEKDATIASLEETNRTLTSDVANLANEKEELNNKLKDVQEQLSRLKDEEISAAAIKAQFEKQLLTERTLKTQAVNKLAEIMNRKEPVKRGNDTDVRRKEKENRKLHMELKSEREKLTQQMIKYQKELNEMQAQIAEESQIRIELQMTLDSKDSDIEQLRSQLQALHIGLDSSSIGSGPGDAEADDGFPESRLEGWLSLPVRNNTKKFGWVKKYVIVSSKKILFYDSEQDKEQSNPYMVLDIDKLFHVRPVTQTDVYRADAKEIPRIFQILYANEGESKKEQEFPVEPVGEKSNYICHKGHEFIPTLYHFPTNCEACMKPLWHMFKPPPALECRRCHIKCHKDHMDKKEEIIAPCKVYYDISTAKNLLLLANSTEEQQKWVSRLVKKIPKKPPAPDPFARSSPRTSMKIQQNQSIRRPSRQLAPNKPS

Columns and labels:
[1] = molecular target: Rho-associated protein kinase 1 (Homo sapiens, UniProt Q13464); conditions: Sf9, 400 uM
[2] = molecular target: Rho-associated protein kinase 2 (Homo sapiens, UniProt O75116); conditions: 400 uM

| inhibition [1] [%] | inhibition [2] [%] | Compound |
| --- | --- | --- |
| 44 | 42 | O=C(Nc1ccncc1)c1ccncc1 |
| 35 | 35 | O=C(Nc1ccncc1)c1ccccn1 |
